Experimental data taken from ChEMBL document CHEMBL1221188, “Small-molecule activation of procaspase-3 to caspase-3 as a personalized anticancer strategy” (Nat Chem Biol, 2006).

Legend:
[1] = target: T1, Caspase-3 (Homo sapiens) (UniProt P42574); test: Activation of N-terminal His6-tagged recombinant procaspase-3 expressed in Escherichia coli assessed as appearance of caspase-3 p32 subunit at 5 uM after 1 to 5 hrs by SDS-PAGE
T1 sequence (whole entry): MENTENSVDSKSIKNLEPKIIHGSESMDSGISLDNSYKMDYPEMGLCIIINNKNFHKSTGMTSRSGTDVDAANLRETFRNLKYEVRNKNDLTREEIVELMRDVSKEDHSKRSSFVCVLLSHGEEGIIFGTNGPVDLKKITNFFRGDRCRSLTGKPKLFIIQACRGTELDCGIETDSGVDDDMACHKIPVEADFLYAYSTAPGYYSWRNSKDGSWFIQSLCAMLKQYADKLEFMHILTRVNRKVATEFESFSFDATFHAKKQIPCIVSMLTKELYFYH

[2] = target: T1, Caspase-3 (Homo sapiens); test: Activation of N-terminal His6-tagged recombinant procaspase-3 expressed in Escherichia coli assessed as appearance of caspase-3 mature large subunit p19 at 5 uM after 1 to 5 hrs by SDS-PAGE
[3] = target: T1, Caspase-3 (Homo sapiens); test: Activation of N-terminal His6-tagged recombinant procaspase-3 expressed in Escherichia coli assessed as induction of protein cleavage at 100 uM after 4 hrs by SDS-PAGE
[4] = target: T1, Caspase-3 (Homo sapiens); test: Activation of N-terminal His6-tagged recombinant procaspase-3 expressed in Escherichia coli assessed as hydrolysis of acetyl-DEVD-p-nitroanilide after 2 hrs by SDS-PAGE
[5] = target: T1, Caspase-3 (Homo sapiens); test: Activation of procaspase-3-mediated apoptosis in human NCI-H226 cells isolated from BALB/c mouse xenograft at 50 to 100 mg/kg, po SID for 21 days measured after 1 week post last dose by Western blot analysis; assay type: organism-based
[6] = target: T1, Caspase-3 (Homo sapiens); test: Activation of N-terminal His6-tagged recombinant procaspase-3 expressed in Escherichia coli at pH of 5 to 5.5 by SDS-PAGE
[7] = target: T1, Caspase-3 (Homo sapiens); test: Activation of N-terminal His6-tagged recombinant procaspase-3 expressed in Escherichia coli assessed as appearance of caspase-3 mature large subunit p19 at 100 uM after 1 hr by SDS-PAGE

Activity [1]: Active
Activity [2]: Active
Activity [3]: > 50%
Activity [4]: Dose-dependent effect
Activity [5]: Active
Activity [6]: inactive
Activity [7]: Active
Structure (SMILES): C=CCc1cccc(/C=N/NC(=O)CN2CCN(Cc3ccccc3)CC2)c1O [PAC-1]

The source made the active and inactive calls. No cut-off for these calls is given here.
